Earlier results on one compound are cited in article PMC3646888, “TRAM-34, a Putatively Selective Blocker of Intermediate-Conductance, Calcium-Activated Potassium Channels, Inhibits Cytochrome P450 Activity” (PLoS ONE, 2013).

In data set [1] the test system is other potassium channels (such as the Kv1.2 channel). Details: method as in PMID 10884437. As to conditions: cited from earlier work.
The target of data set [2] is IKCa channel. To be noted: read-out: Kd, IKCa channel; cited from earlier work.

Consider `Clc1ccccc1C(c1ccccc1)(c1ccccc1)n1cccn1` [TRAM-34, 1-[(2-chlorophenyl)diphenylmethyl]-1H-pyrazole], for which the “Fold less potent on other potassium channels vs. the IKCa channel” value in data set [1] was “up to 200 fold”. The Kd in data set [2] was 20 nM.
